The results in this text go back to patent US7589121B2, “Use of furan alkyls for preparing a drug for treating obesity and cosmetically treating overweight” (priority 2004, dated 2009).

In this series the test system is GSH-S-transferase (target PXR). The experiment in a line: Analysis of mRNAs in the muscles and BAT: GSH-S-transferase. To be noted: TZD. Type of series: in vivo, mice. As for the experimental part: In the brown adipose tissue (BAT) and in the muscles, the mRNA expression of 3 genes was determined in 5 mice of each group by real-time Q-RTR-PCR analysis.

For the molecule `CN(CCOc1ccc(CC2SC(=O)NC2=O)cc1)c1ccccn1` (stereo not shown) [TZD, Rosiglitazone], the “GSH-S-transferase (target PXR) mRNA, MUSCLE/BAT” value is listed as “⇑”.
